The values that follow come from PubChem BioAssay AID651661 (Broad Institute, 2012).

Only a part is listed here, and it is no random draw. The source made the active and inactive calls.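 Rule for the calls: active = mean inhibition of at least 50% after viability correction, with every replicate also passing that limit; inconclusive = mean reaches 50% but only one of two replicates passes; inactive = the rest.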

The experiment in a line: blockers of EWS/Fli transcriptional output – A673 cells, NR0B1 luciferase, luminescence, MLPCN library, primary screen (AID 651661).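 Note: firefly luciferase signal divided by Alamar Blue viability fluorescence both relative to DMSO.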 The following applies: A673 NR0B1-luciferase reporter, viability-normalised; at 12.6 µM; hits give high values. On the technique in general: In a reporter assay the amount or activity of a reporter protein is the signal.
One may read the inhibition as the change of the read-out against control, counted positive when it falls. For `O=C(O)c1ccccc1[As](=O)(O)O`, the inhibition is inactive: -1.04%. The same measure for `CC(=O)Nc1ccc([As](=O)(O)O)cc1`: inactive: -1.46%. `CCCC1OP(N)(=O)OCC1CC` (stereo not drawn): the inhibition is inactive: -6.44%. The same measure for `CN(C)P(=O)(N(C)C)n1c(Nc2ccccc2)nnc1-c1ccccc1`: inactive: -17.7%; for `O=P(Nc1nc2ccc(Cl)cc2s1)(c1ccccc1)c1ccccc1`: inactive: 4.39%; for `Cc1ccc(NP(=O)(Oc2ccccc2F)Oc2ccccc2F)nc1`: inactive: 5.93%. As to `CN(C(=O)Cc1ccc(Cl)c(Cl)c1)[C@H]1CCCC[C@@H]1N1CCCC1`, the inhibition was inactive: -2.69%. For `CCn1c(=O)n(C2CCN(CC3CCCCCCC3)C[C@H]2CO)c2ccccc21` (stereo partly drawn) the value was inactive: 6.12%; for `CC(=O)NC(SC(=S)N(CC(C)C)CC(C)C)C(Cl)(Cl)Cl` (stereo not drawn), inactive: -20.3%. The same measure for `Cc1ccc(OP(=O)(Nc2ccccn2)Oc2ccc(C)cc2)cc1`: inactive: 8.18%; for `O=C(OC1CN2CCC1CC2)c1ccccc1` (stereo not drawn): inactive: -1.37%; for `Cc1ccccc1OP(=O)(Nc1ccccn1)Oc1ccccc1C`: inactive: 8.55%.

For the compound `CC(NC(=O)COC(=O)C(O)(c1ccccc1)c1ccccc1)c1ccccc1` (stereo not drawn), the inhibition was inactive: 8.7%. The same measure for `CN(C)C(=O)Oc1noc2ccccc12`: inactive: -3.73%; for `O=c1c2cc([N+](=O)[O-])ccc2[nH]c2c([N+](=O)[O-])cc([N+](=O)[O-])cc12`: inactive: 31.6%; for `CCNC(=S)/N=C(\N)N[N+](=O)[O-]`: inactive: -6.55%.

On to `O=C(NC1CCS(=O)(=O)C1)NP(=S)(Oc1ccccc1)Oc1ccccc1` (stereo not drawn), for which the inhibition is inactive: 11.4%.

Turning to `c1ccc(-c2nn[nH]n2)c(-c2nn[nH]n2)c1`, the inhibition is inactive: 13.1%. Consider `Cc1ccc(NP(=O)(Oc2cccc(C)c2)Oc2cccc(C)c2)nc1`, for which the inhibition was inactive: 3.09%. The same measure for `O=P1(N(CCCl)CCCl)OCCC2CCCCN21` (stereo not drawn): inactive: 1.2%; for `N#C/C(=C\c1ccc(N(CCBr)CCBr)cc1)C(N)=O`: inactive: 28.3%. For `CC(=O)c1ccc(N2CC2c2ccncc2)cc1` (stereo not drawn), the inhibition is inactive: 7.31%. In the case of `COC(=O)C1(C)COP(=O)(NCc2ccccc2)OC1` (stereo not drawn), the inhibition is inactive: 5.72%.

Consider `Cc1ccccc1CN(C)C(=O)COC(=O)C(O)(c1ccccc1)c1ccccc1`, for which the inhibition was inactive: -1.05%. In the case of `C[C@@H]1C=CCP(=O)(Oc2ccccc2)O1` (stereo partly drawn), the inhibition was inactive: -0.833%.

`C[C@H]1OP(=O)(Oc2ccccc2)C[C@@H]2O[C@@H]21` (stereo partly drawn): the inhibition was inactive: -1.65%.

As for `CC(=O)Nc1ccc([As](=O)(O)O)c(O)c1`, the inhibition is inactive: 5.17%. For `CC(=O)Nc1ccc(Oc2c([N+](=O)[O-])cc([N+](=O)[O-])cc2[N+](=O)[O-])cc1` the value was inactive: -11.8%; for `CCOc1ccc(C2=NCC(CBr)S2)cc1` (stereo not drawn), inactive: -1.23%. For `CCc1cc(O)c([N+](=O)[O-])c(C)c1[N+](=O)[O-]` the value was inactive: 0.25%; for `CC(C)(C)C(=O)NC(Sc1ccccc1)C(Cl)(Cl)Cl` (stereo not drawn), inactive: -14.4%; for `CC(=O)NC(SC(=S)N(C)C)C(Cl)(Cl)Cl` (stereo not drawn), inactive: 15.7%. `O=[N+]([O-])c1ncn(CCn2cnc([N+](=O)[O-])n2)n1`: the inhibition was inactive: 2.55%.

As for `O=[As](O)(c1ccccc1)c1ccc(O)cc1`, the inhibition was inactive: -3.85%.

Turning to `C/C(N)=N\P(=O)(OCc1ccccc1)OCc1ccccc1`, the inhibition is inactive: 9.29%. The same measure for `Nc1ccc([As](=O)(O)c2ccc([N+](=O)[O-])cc2)cc1`: inactive: -4.46%; for `C(Cc1nn[nH]n1)Cc1nn[nH]n1`: inactive: 8.73%. For `Nc1ccc(CCCCOc2ccccc2)cc1` the value was inactive: -7.89%; for `COc1ccc(N)c([N+](=O)[O-])c1[N+](=O)[O-]`, inactive: -1.65%. The same measure for `O=P(Nc1ccccn1)(c1ccc(Br)cc1)c1ccc(Br)cc1`: inactive: 0.702%. As to `CN(C)C1(CNC(=O)c2ccc(Cl)c(S(N)(=O)=O)c2)CCCCC1`, the inhibition was inactive: 0.674%. The same measure for `O=P(Nc1nc2ccccc2s1)(c1ccccc1)c1ccccc1`: inactive: 1.77%. As for `C[C@H]1OP(=O)(Oc2ccccc2)[C@H](O)[C@H](O)[C@H]1N=[N+]=[N-]` (stereo partly drawn), the inhibition was inactive: 4.03%.
